According to PMC4303648:

Experiments:
[1] = molecular target: reconstituted thin filament (chicken skeletal actin decorated with human recombinant cardiac troponin and tropomyosin) (chicken | human) (UniProt P68139); assay: single-molecule fluorescence imaging (oblique angle fluorescence microscopy of tightropes); thin filament tightropes in sub-maximal activation conditions: pCa 6, 15 nM myosin, 0.1 μM ATP; kymographs
[2] = molecular target: reconstituted thin filament (chicken skeletal actin decorated with human recombinant cardiac troponin and tropomyosin) (chicken | human) (UniProt P68139); assay: single-molecule fluorescence imaging (oblique angle fluorescence microscopy of tightropes); intensity histograms of myosin clusters on thin filament tightropes over a range of myosin, calcium and ATP concentrations, fitted globally to a three-state kinetic model; data set (i) 10 fps, data set (ii) 3.8 fps; all data fit at pCa 6.4

- myosins per cluster (myosins per cluster) [1]: < 12
- K2 (myosin-induced equilibrium constant closed to open state transition) [2]: 85 µM and 37 µM
- d (size of the regulatory unit, additional myosins bound) [2]: 11.6 and 11
- ka (intrinsic myosin binding rate) [2]: 38 s⁻¹ and 47 s⁻¹
Substance: myosin S1-eGFP-RLC (complex)

Where “and” joins values, the source holds several entries; their conditions need not be identical. Identical values can stand only once.
